One experiment addresses T1, C5aR1 Y2586.51A (Homo sapiens, UniProt P21730, Y258A).
T1 construct: expressed in transfected cells; host or cells: HEK293
T1 sequence (P21730 1-350 Y258A): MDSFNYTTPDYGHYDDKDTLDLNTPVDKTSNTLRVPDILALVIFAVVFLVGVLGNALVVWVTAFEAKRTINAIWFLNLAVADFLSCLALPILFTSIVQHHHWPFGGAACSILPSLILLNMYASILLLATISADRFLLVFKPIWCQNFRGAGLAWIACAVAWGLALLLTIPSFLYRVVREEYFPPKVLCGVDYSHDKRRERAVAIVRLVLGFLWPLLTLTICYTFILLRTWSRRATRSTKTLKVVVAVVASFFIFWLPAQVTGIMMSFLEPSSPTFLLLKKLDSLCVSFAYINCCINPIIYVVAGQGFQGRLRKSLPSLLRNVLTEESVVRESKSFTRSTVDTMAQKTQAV
Briefly: BRET β-arrestin 2 recruitment. It is filed as cell-based. The following applies: HEK293, BRET, mean±SEM, n=3, read-out: EC50, β-arrestin2 recruitment. The method, then: (§1) The C5a-mediated β-arrestin 2 recruitment to C5aR1 and C5aR2, respectively, was measured using BRET-based assay as previously described.[36],[61],[62] Briefly, HEK293 cells were transiently transfected with C5aR1-Nluc and mVenus-β-arrestin 2 or C5aR2-mVenus and Nluc-β-arrestin 2 constructs using PEI transfection reagent (YEASEN, 40816ES02) according to the manufacturer’s instruction. At 24 h post transfection, the cells were gently detached and seeded (100,000/well) onto 96-well white plates in DMEM containing 5% FBS. On the next day, cells were washed once with Phosphate Buffered Saline (PBS) and incubated in HBSS containing 20 mM HEPES, pH 7.4, with coelenterazine h (5 μM, YEASEN, 40906ES02) for 1 h (37 °C, 5% CO2). The baseline BRET light emissions (460–485 nm and 520–545 nm) were monitored by the Synergy H1 microplate reader (BioTek). After the incubation of different diluted concentrations of agonist with or without antagonist for 10 min, the second BRET light emissions were measured and the ligand-induced BRET ratio was calculated by subtracting the acceptor (mVenus, 520–545 nm) over donor (Nluc, 460–485 nm) emission ratio of the vehicle-treated wells from that of the ligand-treated wells. We carried out the nonlinear regression (curve fit) dose-response function in GraphPad Prism 7 to yield the values of Emax and EC50.
For orientation: In BRET a luciferase serves as donor, and the signal depends on an acceptor being close.

In another experiment the target is T2, C5aR1 D191ECL2A (Homo sapiens, UniProt P21730, D191A).
T2 construct: expressed in transfected cells; host or cells: HEK293
T2 sequence (P21730 1-350 D191A): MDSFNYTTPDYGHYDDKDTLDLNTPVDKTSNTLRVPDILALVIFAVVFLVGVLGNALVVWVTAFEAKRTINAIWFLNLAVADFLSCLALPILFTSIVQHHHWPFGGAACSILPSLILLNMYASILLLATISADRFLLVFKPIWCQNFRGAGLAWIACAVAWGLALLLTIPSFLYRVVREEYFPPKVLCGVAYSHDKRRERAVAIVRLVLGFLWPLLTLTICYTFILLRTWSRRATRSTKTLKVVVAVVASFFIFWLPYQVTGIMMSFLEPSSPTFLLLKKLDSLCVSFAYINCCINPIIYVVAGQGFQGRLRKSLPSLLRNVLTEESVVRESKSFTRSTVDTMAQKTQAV
The experiment in a line: BRET β-arrestin 2 recruitment. It is filed as cell-based. The following applies: HEK293, BRET, mean±SEM, n=3, read-out: EC50, β-arrestin2 recruitment. The procedure: as §1

By EC50 is commonly meant the concentration needed to bring the measured effect to its halfway point.

B1: C5a: 74-amino-acid complement fragment, endogenous agonist; recombinant human C5a, free cysteine replaced by arginine (protein)
chain: TLQKKIEEIAAKYKHSVVKKCCYDGARVNNDETCEQRAARISLGPRCIKAFTECCVVASQLRANISHKDMQLGR
modifications: three intramolecular disulfides; non-glycosylated (E. coli); Trx-His6 tag removed with TEV
B1: the results for the EC50 with C5aR1 Y2586.51A and in the experiment with C5aR1 D191ECL2A were 0.0551 ± 0.00807 µM and 0.0245 ± 0.00526 µM, respectively.

Source of the values: PMC9937529, “Mechanism of activation and biased signaling in complement receptor C5aR1” (Cell Research, 2023).
